The values that follow come from article PMC3677582 (Angewandte Chemie (International ed. in English), 2012).

Some targets named below: EWPTSII peptide; QLDRhVTR metallopeptide; ERhVQSTRL metallopeptide.
Assay in all cases: fluorescence anisotropy displacement
(Fluorescence polarisation rises when a labelled molecule tumbles more slowly, as on binding a larger partner.)

The target of assay [1] is VQDTRL peptide (CFTR C-terminus) (Homo sapiens).
The target of assay [2] is VQDRhTRL metallopeptide (Homo sapiens).

Consider “CAL (CFTR-associated ligand) PDZ (from UniProt Q9HD26)”, for which the Ki in assay [1] is 320 µM; in assay [2], 6.3 µM; with EWPTSII peptide it was 65 µM; in the assay with QLDRhVTR metallopeptide it was 10 µM; in the assay with ERhVQSTRL metallopeptide it was 0.56 µM.

The term Ki denotes a measure of affinity in units of concentration, obtained from inhibition or displacement.
